Results on one compound are retold here after patent US20260256778A1 (AbbVie Inc., priority 2023, published 2026).

This test has as its system non-segmental vitiligo (NSV). The settings on record: for Percent CFB in F-VASI; LSMEAN (SE): Week 24, MMRM.
Setting [1] is: 11 mg, Week 52, Intent-to-Treat, MMRM/NRI-MI.
Setting [2] is: 22 mg, Week 52, Intent-to-Treat, MMRM/NRI-MI.

Where two headings read alike, the source gives them in different places.

Turning to `CC[C@@H]1CN(C(=O)NCC(F)(F)F)C[C@@H]1c1cnc2cnc3[nH]ccc3n12` [Upadacitinib, (3S,4R)-3-ethyl-4-(3H-imidazo[1,2-a]pyrrolo[2,3-e]pyrazin-8-yl)-N-(2,2,2-trifluoroethyl) pyrrolidine-1-carboxamide], the “% Achieving much better or a little better on PhGIC” value by setting is: (6 mg QD, Week 24) 42.9%; (11 mg QD, Week 24) 59.6%. The “F-VASI 50; (%)” value reads like this: (6 mg QD, Week 24) 16.3%; (11 mg QD, Week 24) 38.3%. The “T-VASI 50 (%)” value (6 mg, Week 52, Intent-to-Treat, MMRM/NRI-MI) was determined as 24.5%; the “T-VASI 50 (%)” value (11 mg QD, Week 24) was “did not meet the T-VASI 50 secondary endpoint”; the “T-VASI 50 (%)” value (11 mg, Week 52, As Observed) came to 39.5%; the “T-VASI 50 (%)” value under setting [1] is listed as 31.9%; the “T-VASI 50 (%)” value (22 mg, Week 52, As Observed) was determined as 41.4%; the “T-VASI 50 (%)” value under setting [2] amounted to 27.9%. For the same compound, the “Percent CFB in F-VASI; LSMEAN (SE)” value is “met the primary endpoint” (11 mg QD oral) and “met the primary endpoint” (22 mg QD oral). The “F-VASI 75 (%)” value worked out at 63.2% (11 mg, Week 52, As Observed); 51.1% under setting [1]; 37.9% (22 mg, Week 52, As Observed); 25.6% under setting [2].
